{"source": "patent US8039432B2", "about": "“Method of treatment of diabetes and/or obesity with reduced nausea side effect” (Conjuchem, LLC, priority 2005, dated 2011)", "system": "male Sprague-Dawley rats", "assay": "Conditioned taste aversion test (CTA)", "source_text": "One model for studying gastrointestinal malaise in response to administration of a test agent is the conditioned taste aversion test (Peeters and Broekkamp, 1994, J. Steroid Biochem. Mol. Biol., 49:417-427). Conditioned taste aversion is a form of associative learning in which animals learn to avoid flavors of substances where initial ingestion of the substance was followed by illness. In conditioned taste aversion, animals learn to associate a flavor, or conditioned stimulus, with the aversive effects of an administered agent, or unconditioned stimulus. Following conditioned stimulus—unconditioned stimulus pairings, animals reduce their consumption of the conditioned stimulus, and/or show a preference for other tastes when later presented with the conditioned flavor. […] The conditioned stimulus was 0.1% saccharin flavored water with high palatability. […]\nFollowing injection, all groups were given food ad libitum and 2 bottles of water. At 72 h and 96 h post dose, a choice of tap water or 0.1% saccharin solution (conditioned stimulus) was offered, and intake of both solutions was measured for 12 hours. Mean saccharin preference ratios, representing the percentage of saccharin solution consumed relative to total liquid intake, were determined for each group (FIGS. 1 and 2).", "data": [{"substance": "exendin-4(1-39) Lys^40 (ε-AEEA-MPA)-NH2 conjugated with albumin [CJC-1134-PC]", "values": [{"measurement": "saccharin solution consumption as share of total liquid intake (saccharin preference ratio)", "setting": "0.5 nmol/kg SC, 12 h period beginning 72 h post dose", "value": "over 80%"}, {"measurement": "conditioned taste aversion (saccharin preference ratio compared to vehicle control)", "setting": "rats, compared to vehicle control", "value": "None of the three CJC-1134-PC doses resulted in conditioned taste aversion"}]}]}
